Test system: DLD1 cells
Assay: Long-Term Clonogenic Assay (DLD1 cells)
Format: cell-based
Description: Clonogenic Inhibition in DLD1 or HT55 Cells
In order to determine the efficacy of chronic dosing of putative TNKS inhibitors, long term clonogenic or ‘colony formation’ assays were carried out. This included the sparse seeding of cells in a 6-well dish followed by continuous dosing of cells over 12-14 days (depending on relative cell growth). Appropriate cell lines (DLD1 or HT55) were seeded at 500 cells/well in a 6-well dish in DMEM supplemented with FBS. […] Dosages were carried out in triplicate. Cell media containing compound or DMSO only was replenished every 48 hours. Termination of the assay included the fixation of cells with trichlororacetic acid (1 mL, 10% (v/v), Sigma Aldrich, cat. no. T6399) and incubation for 16 hours at 4° C. Fixed cells were then washed with water, allowed to dry and stained with sulforhodamine B solution (sulforhodamine B 0.05% (w/v), Sigma Aldrich cat. no. S1402, acetic acid 1% (v/v), Fisher Scientific, cat. no. A/0400/PB17)) for 12 hours at room temperature. The stain was then removed and the cells washed copiously with aqueous acetic acid (1% v/v) and allowed to dry.
The data was normalised to the DMSO control and was expressed as surviving fraction as a function of inhibitor dose.

Cc1cccc2c(=O)[nH]c(-c3ccc(CN(C)C)cc3)cc12 [IQ-034]
Clonogenic SF50 (DLD1): < 2 µM

From patent publication US9193689B2, “3-aryl-5-substituted-isoquinolin-1-one compounds and their therapeutic use” (INSTITUTE OF CANCER RESEARCH: ROYAL CANCER HOSPITAL (THE), priority 2012, dated 2015)
